Literature values, collected in patent US7235267B1, “Brain cell or nerve cell-protecting agents comprising medicinal ginseng” (priority 1999, dated 2007).

Tested on: hippocampal CA1 pyramidal neurons
Conditions: intracerebroventricular administration; cited from earlier work

B1: interleukin 3: peptide increasing Bcl-xL protein in hippocampal CA1 by intracerebroventricular administration (protein, UniProt P08700 20-152, looked up)
Interleukin-3: APMTQTTPLKTSWVNCSNMIDEIITHLKQPPLPLLDFNNLNGEDQDILMENNLRRPNLEAFNRAVKSLQNASAIESILKNLLPCLPLATAAPTRHPIHIKDGDWNEFRRKLTFYLKTLENAQAQQTTLSLAIF
Q: Which “expression of Bcl-xL protein in the brain” value does the source give for B1 here?
A: can increase
